Test system: 4T1 tumor bearing mice
Experiment: Dosimetry analysis using OLINDA software, 4T1 tumor
Details: ^111In
Experimental: From the ex vivo biodistribution data obtained from the ^111In/^177Lu-FAP8-PEG3-IP-DOTA in 4T1 and HEK-FAP tumor bearing mice, the total absorbed radiation dose coefficients (mGy/MBq were calculated using OLINDA 2.2.3 software (Tables 9-12).
FIGS. 36A and 36B show comparison data related to the total absorbed dose coefficient in selected organs (blood, heart, lungs, liver, spleen, kidney's bone marrow, and tumor). Dose estimates for healthy organs such as blood, heart, lungs, liver, spleen, kidneys, and bone marrow were calculated assuming a 25 g mouse phantom, whereas for tumor dose estimates were calculated with the sphere model. Time-activity curves were fitted to the biodistribution data of each organ individually with exponential functions.

COc1ccc(CNC(=O)C(=O)[C@@H]2CC(F)(F)CN2C(=O)CNC(=O)c2ccnc3ccc(OCC(=O)NCCOCCOCCOCCNC(=O)[C@H](CCCCNC(=O)CCCc4ccc(I)cc4)NC(=O)CN4CCN(CC(=O)O)CCN(CC(=O)O)CCN(CC(=O)O)CC4)cc23)cc1OC.[In+3]
Kinetics value, Blood (1.0 nmol/mouse): 8.56E−1 MBq-h/MBq | Kinetics value, Bone Marrow (1.0 nmol/mouse): 3.25E−02 MBq-h/MBq | Kinetics value, Heart (1.0 nmol/mouse): 1.98E−1 MBq-h/MBq | Kinetics value, Intestines (1.0 nmol/mouse): 1.95E−1 MBq-h/MBq | Kinetics value, Kidneys (1.0 nmol/mouse): 4.49E−01 MBq-h/MBq | Kinetics value, Liver (1.0 nmol/mouse): 2.02E0 MBq-h/MBq | Kinetics value, Lung (1.0 nmol/mouse): 1.74E−1 MBq-h/MBq | Kinetics value, Spleen (1.0 nmol/mouse): 4.85E−1 MBq-h/MBq | Kinetics value, Stomach (1.0 nmol/mouse): 1.35E−1 MBq-h/MBq | Kinetics value, Tumor (1.0 nmol/mouse): 4.13E0 MBq-h/MBq | Organ doses, Blood (1.0 nmol/mouse): 1.01E02 mGy/MBq | Organ doses, Bone Marrow (1.0 nmol/mouse): 1.09E01 mGy/MBq | Organ doses, Heart (1.0 nmol/mouse): 4.00E01 mGy/MBq | Organ doses, Intestines (1.0 nmol/mouse): 3.16E01 mGy/MBq | Organ doses, Kidneys (1.0 nmol/mouse): 4.74E01 mGy/MBq | Organ doses, Liver (1.0 nmol/mouse): 7.70E01 mGy/MBq | Organ doses, Lung (1.0 nmol/mouse): 2.11E01 mGy/MBq | Organ doses, Spleen (1.0 nmol/mouse): 2.83E01 mGy/MBq | Organ doses, Stomach (1.0 nmol/mouse): 1.76E01 mGy/MBq | Organ doses, Tumor (1.0 nmol/mouse): 2.01E02 mGy/MBq | Kinetics value, Blood (2.5 nmol/mouse): 5.86E−1 MBq-h/MBq | Kinetics value, Bone Marrow (2.5 nmol/mouse): 5.12E−2 MBq-h/MBq | Kinetics value, Heart (2.5 nmol/mouse): 1.82E−1 MBq-h/MBq | Kinetics value, Intestines (2.5 nmol/mouse): 1.81E−1 MBq-h/MBq | Kinetics value, Liver (2.5 nmol/mouse): 2.09E0 MBq-h/MBq | Kinetics value, Lung (2.5 nmol/mouse): 5.80E−1 MBq-h/MBq | Kinetics value, Spleen (2.5 nmol/mouse): 8.16E−1 MBq-h/MBq | Kinetics value, Stomach (2.5 nmol/mouse): 1.41E−1 MBq-h/MBq | Kinetics value, Tumor (2.5 nmol/mouse): 4.13E0 MBq-h/MBq | Organ doses, Blood (2.5 nmol/mouse): 1.08E02 mGy/MBq | Organ doses, Bone Marrow (2.5 nmol/mouse): 4.18E01 mGy/MBq | Organ doses, Heart (2.5 nmol/mouse): 4.14E01 mGy/MBq | Organ doses, Intestines (2.5 nmol/mouse): 4.36E01 mGy/MBq | Organ doses, Kidneys (2.5 nmol/mouse): 1.49E02 mGy/MBq | Organ doses, Liver (2.5 nmol/mouse): 9.44E01 mGy/MBq | Organ doses, Lung (2.5 nmol/mouse): 4.09E01 mGy/MBq | Organ doses, Spleen (2.5 nmol/mouse): 5.03E01 mGy/MBq | Organ doses, Stomach (2.5 nmol/mouse): 1.82E01 mGy/MBq | Organ doses, Tumor (2.5 nmol/mouse): 1.74E02 mGy/MBq | Kinetics value, Blood (5.0 nmol/mouse): 6.94E−1 MBq-h/MBq | Kinetics value, Bone Marrow (5.0 nmol/mouse): 4.27E−2 MBq-h/MBq | Kinetics value, Heart (5.0 nmol/mouse): 8.78E−2 MBq-h/MBq | Kinetics value, Intestines (5.0 nmol/mouse): 1.09E−1 MBq-h/MBq | Kinetics value, Kidneys (5.0 nmol/mouse): 1.04E0 MBq-h/MBq | Kinetics value, Liver (5.0 nmol/mouse): 3.74E0 MBq-h/MBq | Kinetics value, Lung (5.0 nmol/mouse): 3.00E−1 MBq-h/MBq | Kinetics value, Spleen (5.0 nmol/mouse): 1.40E+0 MBq-h/MBq | Kinetics value, Stomach (5.0 nmol/mouse): 1.18E−1 MBq-h/MBq | Kinetics value, Tumor (5.0 nmol/mouse): 5.59E0 MBq-h/MBq | Organ doses, Blood (5.0 nmol/mouse): 9.32E01 mGy/MBq | Organ doses, Bone Marrow (5.0 nmol/mouse): 3.6E01 mGy/MBq | Organ doses, Heart (5.0 nmol/mouse): 2.10E01 mGy/MBq | Organ doses, Intestines (5.0 nmol/mouse): 2.22E01 mGy/MBq | Organ doses, Kidneys (5.0 nmol/mouse): 1.07E02 mGy/MBq | Organ doses, Liver (5.0 nmol/mouse): 1.00E02 mGy/MBq | Organ doses, Lung (5.0 nmol/mouse): 2.61E01 mGy/MBq | Organ doses, Spleen (5.0 nmol/mouse): 1.11E02 mGy/MBq | Organ doses, Stomach (5.0 nmol/mouse): 1.72E01 mGy/MBq | Organ doses, Tumor (5.0 nmol/mouse): 1.61E02 mGy/MBq | Kinetics value, Blood (10.0 nmol/mouse): 9.85E−1 MBq-h/MBq | Kinetics value, Bone Marrow (10.0 nmol/mouse): 2.92E−02 MBq-h/MBq | Kinetics value, Heart (10.0 nmol/mouse): 9.09E−2 MBq-h/MBq | Kinetics value, Intestines (10.0 nmol/mouse): 1.33E−1 MBq-h/MBq | Kinetics value, Kidneys (10.0 nmol/mouse): 4.86E−01 MBq-h/MBq | Kinetics value, Liver (10.0 nmol/mouse): 3.00E+0 MBq-h/MBq | Kinetics value, Lung (10.0 nmol/mouse): 2.40E−1 MBq-h/MBq | Kinetics value, Spleen (10.0 nmol/mouse): 1.30E+0 MBq-h/MBq | Kinetics value, Stomach (10.0 nmol/mouse): 8.87E−2 MBq-h/MBq | Organ doses, Blood (10.0 nmol/mouse): 1.09E02 mGy/MBq | Organ doses, Bone Marrow (10.0 nmol/mouse): 5.61E01 mGy/MBq | Organ doses, Heart (10.0 nmol/mouse): 1.97E01 mGy/MBq | Organ doses, Intestines (10.0 nmol/mouse): 1.89E01 mGy/MBq | Organ doses, Kidneys (10.0 nmol/mouse): 7.57E01 mGy/MBq | Organ doses, Liver (10.0 nmol/mouse): 9.11E01 mGy/MBq | Organ doses, Lung (10.0 nmol/mouse): 2.28E01 mGy/MBq | Organ doses, Spleen (10.0 nmol/mouse): 7.05E01 mGy/MBq | Organ doses, Stomach (10.0 nmol/mouse): 1.12E01 mGy/MBq | Organ doses, Tumor (10.0 nmol/mouse): 1.50E02 mGy/MBq

Reference: patent publication US20260382772A1, “KETO-AMIDE-BASED FIBROBLAST ACTIVATION PROTEIN-TARGETED LIGAND LINKED TO AN IMAGING OR THERAPEUTIC AGENT, COMPOSITIONS, AND METHODS OF USE” (published 2026)
